Laboratory results taken from US9216999B2, “Substituted pyrrolo[2,3-h][1,6]naphthyridines and compositions thereof as JAK inhibitors” (priority 2011, dated 2015).

Sequences of proteins named here, by UniProt entry; tags and fusion partners are left off. A change or cut given only in a name is not applied to a line headed by its entry.
UniProt P52333: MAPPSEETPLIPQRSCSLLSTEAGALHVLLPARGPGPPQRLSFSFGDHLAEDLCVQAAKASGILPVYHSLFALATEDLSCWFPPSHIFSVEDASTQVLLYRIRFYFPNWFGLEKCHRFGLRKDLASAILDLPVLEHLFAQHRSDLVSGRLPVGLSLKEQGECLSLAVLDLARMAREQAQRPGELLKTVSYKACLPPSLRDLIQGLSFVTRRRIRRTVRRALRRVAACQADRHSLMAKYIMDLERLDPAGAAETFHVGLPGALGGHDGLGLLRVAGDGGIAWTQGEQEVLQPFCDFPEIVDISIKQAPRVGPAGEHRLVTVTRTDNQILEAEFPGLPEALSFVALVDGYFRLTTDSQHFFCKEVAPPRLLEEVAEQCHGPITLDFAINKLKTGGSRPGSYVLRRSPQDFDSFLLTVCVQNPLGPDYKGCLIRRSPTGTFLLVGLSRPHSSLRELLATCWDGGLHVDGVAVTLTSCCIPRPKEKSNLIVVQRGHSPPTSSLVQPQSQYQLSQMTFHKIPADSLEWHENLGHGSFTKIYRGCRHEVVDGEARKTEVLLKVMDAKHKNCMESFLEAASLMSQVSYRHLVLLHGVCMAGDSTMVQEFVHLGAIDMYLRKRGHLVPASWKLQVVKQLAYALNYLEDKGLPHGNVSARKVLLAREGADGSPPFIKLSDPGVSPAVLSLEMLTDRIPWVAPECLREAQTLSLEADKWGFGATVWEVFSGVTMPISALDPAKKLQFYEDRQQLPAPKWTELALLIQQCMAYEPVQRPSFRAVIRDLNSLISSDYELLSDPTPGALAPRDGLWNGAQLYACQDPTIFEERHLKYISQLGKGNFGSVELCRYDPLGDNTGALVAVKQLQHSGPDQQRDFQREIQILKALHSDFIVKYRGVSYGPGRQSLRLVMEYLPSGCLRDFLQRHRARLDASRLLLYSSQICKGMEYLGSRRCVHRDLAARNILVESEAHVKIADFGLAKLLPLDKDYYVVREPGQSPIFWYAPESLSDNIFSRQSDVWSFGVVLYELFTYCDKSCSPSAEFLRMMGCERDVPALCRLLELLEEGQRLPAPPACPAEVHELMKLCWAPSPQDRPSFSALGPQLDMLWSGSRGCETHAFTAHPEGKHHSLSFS

Key:
[1] = target: JAK2 (Homo sapiens (Human), UniProt O60674); test: Enzyme assay (Assay Example^a 1), JAK2; type: biochemical; details: ATP 100 μM, read-out: IC50 (μM) JAK2
[2] = target: T1, JAK3 (Homo sapiens (Human), UniProt P52333); test: JAK3 enzyme assay (Assay Example^b 1)
[3] = target: T1, JAK3; test: Enzyme assay (Assay Example^a 1), JAK3; type: biochemical
[4] = IC50 (μM) JAK3, Table^b 80, ATP 100 μM
[5] = ATP 100 μM, Table^a 154, read-out: IC50 (μM) JAK3
[6] = ATP 100 μM, read-out: IC50 (μM) JAK3

| SMILES | IC50 ([3]; read-out: IC50 (μM) JAK3) [µM] | also measured |
| --- | --- | --- |
| O=C(OCc1ccccc1)N1CCCC(c2ncn3cnc4[nH]ccc4c23)C1 (racemic) [compound 3] | – | IC50 [1]: 0.13 µM |
| C[C@@H]1CCN(Cc2ccccc2)C[C@@H]1n1ccc(=O)c2cnc3[nH]ccc3c21 (racemic) [compound 4] | – | IC50 ([2]; IC50 (μM) JAK3, Table^b 78, ATP 100 μM): 0.065 µM |
| N#CCC(=O)N1CCCC(c2ncn3cnc4[nH]ccc4c23)C1 (racemic) [compound 4] | – | IC50 [3]: 0.29 µM |
| N#Cc1ccc(CN2CCCC(c3nnn4cnc5[nH]ccc5c34)C2)cc1 (racemic) [compound 22] | – | IC50 [3]: > 1 µM |
| C[C@@H]1CCN(C(=O)C2CCCC2)C[C@@H]1n1ccc(=O)c2cnc3[nH]ccc3c21 (racemic) [compound 38] | – | IC50 [2, 4]: 0.031 µM |
| O=c1[nH]c(=O)n(C2CCN(CC3CCCO3)CC2)c2c1cnc1[nH]ccc12 (racemic) [compound 99] | – | IC50 ([2]; IC50 (μM) JAK3, ATP 100 μM): > 1 µM |
| CC1(C)CC1NC[C@H]1CC[C@H](n2c(=O)[nH]c(=O)c3cnc4[nH]ccc4c32)CC1 (mixture of isomers) [compound 125] | – | IC50 ([2]; IC50 (μM) JAK3, ATP 100 μM): > 1 µM |
| O=c1[nH]c(=O)n([C@H]2CC[C@H](CNCC3CCCO3)CC2)c2c1cnc1[nH]ccc12 (mixture of isomers) [compound 130] | – | IC50 ([2]; IC50 (μM) JAK3, ATP 100 μM): > 1 µM |
| O=c1[nH]c(=O)n([C@H]2CC[C@H](CNCC(O)(c3cccnc3)C(F)(F)F)CC2)c2c1cnc1[nH]ccc12 (mixture of isomers) [compound 132] | – | IC50 ([2]; IC50 (μM) JAK3, ATP 100 μM): > 1 µM |
| c1ccc(CCN[C@H]2CC[C@@H](c3nnn4cnc5[nH]ccc5c34)CC2)cc1 [135a] | – | IC50 ([1]; Table^a 154): 0.94 µM |
| O[C@H](CN[C@H]1CC[C@H](c2nnn3cnc4[nH]ccc4c23)CC1)c1ccccc1 [203b, (S)-2-{[trans-4-(7H-pyrrolo[3,2-e][1,2,3]triazolo[1,5-c]pyrimidin-1-yl)cyclohexyl]amino}-1-phenylethanol] | – | IC50 [3, 5]: 1 µM |
| O[C@@H](CN[C@H]1CC[C@H](c2nnn3cnc4[nH]ccc4c23)CC1)c1ccccc1 [204b, (R)-2-{[trans-4-(7H-pyrrolo[3,2-e][1,2,3]triazolo[1,5-c]pyrimidin-1-yl)cyclohexyl]amino)-1-phenylethanol] | – | IC50 [3, 5]: > 1 µM |
| O=C(OCc1ccccc1)N1CCC(c2nnn3cnc4[nH]ccc4c23)CC1 [compound 26] | > 1 | – |
| O=C(CC(F)(F)F)N1CCC(c2nnn3cnc4[nH]ccc4c23)CC1 [compound 29] | > 1 | – |
| N#Cc1ccc(CN2CCC(c3nnn4cnc5[nH]ccc5c34)CC2)cc1 [compound 34] | 0.031 | – |
| Cc1noc(C)c1CN1CCC(c2nnn3cnc4[nH]ccc4c23)CC1 [compound 36] | > 1 | – |
| FC(F)(F)Sc1ccc(CN2CCC(c3nnn4cnc5[nH]ccc5c34)CC2)cc1 [compound 38] | 0.22 | – |
| c1ccc(CCCN2CCC(c3nnn4cnc5[nH]ccc5c34)CC2)cc1 [compound 45] | > 1 | – |
| COc1ccc(CN2CCC(c3nnn4cnc5[nH]ccc5c34)CC2)cc1F [compound 46] | > 1 | – |
| FC(F)(F)c1cc(CN2CCC(c3nnn4cnc5[nH]ccc5c34)CC2)cc(C(F)(F)F)c1 [compound 47] | > 1 | – |
| Clc1ccc(CN2CCC(c3nnn4cnc5[nH]ccc5c34)CC2)s1 [compound 49] | 0.041 | – |
| N#Cc1ccc(CN2CCC(n3c(=O)[nH]c(=O)c4cnc5[nH]ccc5c43)CC2)cc1 [compound 50] | – | IC50 [2, 4]: > 1 µM |
| c1cc2c(ncn3nnc(C4CCN(CC5CCCCC5)CC4)c23)[nH]1 [compound 50] | > 1 | – |
| O=c1[nH]c(=O)n(C2CCN(Cc3ccc(Cl)s3)CC2)c2c1cnc1[nH]ccc12 [compound 51] | – | IC50 [2, 4]: > 1 µM |

| SMILES | IC50 ([3]; read-out: IC50 (μM) JAK3) [µM] | also measured |
| --- | --- | --- |
| c1cc2c(ncn3nnc(C4CCN(C5CCCC5)CC4)c23)[nH]1 [compound 51] | > 1 | – |
| N#Cc1cc(F)c(CN2CCC(c3nnn4cnc5[nH]ccc5c34)CC2)c(F)c1 [compound 53] | – | IC50 [3, 5]: 0.024 µM |
| N#Cc1ccc(CN2CCC(n3ccc(=O)c4cnc5[nH]ccc5c43)CC2)cc1 [compound 57] | – | IC50 [2, 4]: > 1 µM |
| O=C(Nc1cccc(C(F)(F)F)c1)N1CCC(c2nnn3cnc4[nH]ccc4c23)CC1 [compound 57] | > 1 | – |
| N#Cc1ccc(CN2CCC(n3ccc(=O)c4cnc5[nH]ccc5c43)CC2)c(F)c1 [compound 58] | – | IC50 [2, 4]: > 1 µM |
| O=C(c1ccc(C(F)(F)F)cc1)N1CCC(c2nnn3cnc4[nH]ccc4c23)CC1 [compound 58] | > 1 | – |
| c1cc2c(ncn3nnc(C4CCCCCC4)c23)[nH]1 [compound 66] | 0.086 | – |
| FC(F)(F)[C@H]1CC[C@H](c2nnn3cnc4[nH]ccc4c23)CC1 [compound 69] | > 1 | – |
| O=c1ccn(C2CCC(CO)CC2)c2c1cnc1[nH]ccc12 (stereo not drawn) [compound 69] | – | IC50 [2, 4]: > 1 µM |
| FC[C@H]1CC[C@H](c2nnn3cnc4[nH]ccc4c23)CC1 [compound 73] | 0.065 | – |
| SC[C@H]1CC[C@H](c2nnn3cnc4[nH]ccc4c23)CC1 [compound 76] | 0.03 | – |
| O=C[C@H]1CC[C@H](c2nnn3cnc4[nH]ccc4c23)CC1 [compound 78] | 0.17 | – |
| O=S1(=O)CCN(C[C@H]2CC[C@H](c3nnn4cnc5[nH]ccc5c34)CC2)CC1 [compound 88] | 0.21 | – |
| N#CCCNC[C@H]1CC[C@H](c2nnn3cnc4[nH]ccc4c23)CC1 [compound 90] | 0.2 | – |
| F[C@H]1CCN(C[C@H]2CC[C@H](c3nnn4cnc5[nH]ccc5c34)CC2)C1 [compound 94] | 0.83 | – |
| F[C@@H]1CCN(C[C@H]2CC[C@H](c3nnn4cnc5[nH]ccc5c34)CC2)C1 [compound 95] | > 1 | – |
| FC1(F)CCN(C[C@H]2CC[C@H](c3nnn4cnc5[nH]ccc5c34)CC2)CC1 [compound 97] | 0.97 | – |
| O=c1[nH]c(=O)n(C2CCN(CCCCCC(F)(F)F)CC2)c2c1cnc1[nH]ccc12 [compound 97] | – | IC50 ([2]; IC50 (μM) JAK3, ATP 100 μM): > 1 µM |
| FC(F)(F)c1ccc(CNC[C@H]2CC[C@H](c3nnn4cnc5[nH]ccc5c34)CC2)cc1 [compound 98] | 0.3 | – |
| FC(F)(F)c1ccc(NC[C@H]2CC[C@H](c3nnn4cnc5[nH]ccc5c34)CC2)cc1 [compound 99] | > 1 | – |
| Fc1ccc(NC[C@H]2CC[C@H](c3nnn4cnc5[nH]ccc5c34)CC2)cc1 [compound 100] | 0.24 | – |
| Fc1ccc(CNC[C@H]2CC[C@H](c3nnn4cnc5[nH]ccc5c34)CC2)cc1 [compound 101] | 0.22 | – |
| CS(=O)(=O)c1ccc(CNC[C@H]2CC[C@H](c3nnn4cnc5[nH]ccc5c34)CC2)cc1 [compound 113] | 0.71 | – |
| FC(F)(F)Oc1ccc(NC[C@H]2CC[C@H](c3nnn4cnc5[nH]ccc5c34)CC2)cc1 [compound 114] | > 1 | – |

| SMILES | IC50 ([3]; read-out: IC50 (μM) JAK3) [µM] | also measured |
| --- | --- | --- |
| FC(F)(F)Oc1ccc(NC[C@H]2CC[C@H](c3nnn4cnc5[nH]ccc5c34)CC2)c(Cl)c1 [compound 115] | > 1 | – |
| O=c1[nH]c(=O)n(C2CCC(CN3CCC(F)(F)CC3)CC2)c2c1cnc1[nH]ccc12 (stereo not drawn) [compound 115] | – | IC50 ([2]; IC50 (μM) JAK3, ATP 100 μM): > 1 µM |
| N#C[C@@H]1CCN(CC2CCC(n3c(=O)[nH]c(=O)c4cnc5[nH]ccc5c43)CC2)C1 (stereo partly drawn) [compound 118] | – | IC50 ([2]; IC50 (μM) JAK3, ATP 100 μM): > 1 µM |
| c1cc2c(ncn3nnc([C@H]4CC[C@H](CNc5ccc(N6CCOCC6)cc5)CC4)c23)[nH]1 [compound 118] | > 1 | – |
| O[C@H]1CCN(C[C@H]2CC[C@H](c3nnn4cnc5[nH]ccc5c34)CC2)C1 [compound 119] | 0.59 | – |
| CN(CCO)CC1CCC(n2c(=O)[nH]c(=O)c3cnc4[nH]ccc4c32)CC1 (stereo not drawn) [compound 120] | – | IC50 ([2]; IC50 (μM) JAK3, ATP 100 μM): > 1 µM |
| c1cc2c(ncn3nnc([C@H]4CC[C@H](CNC[C@@H]5CCCO5)CC4)c23)[nH]1 [compound 120] | > 1 | – |
| O=c1[nH]c(=O)n(C2CCC(CNC3(C(F)(F)F)CC3)CC2)c2c1cnc1[nH]ccc12 (stereo not drawn) [compound 122] | – | IC50 ([2]; IC50 (μM) JAK3, ATP 100 μM): > 1 µM |
| c1cc(CCNC2CCC(c3nnn4cnc5[nH]ccc5c34)CC2)ccn1 (stereo not drawn) [compound 122] | > 1 | – |
| FC(F)(F)c1cccc(CCNC2CCC(c3nnn4cnc5[nH]ccc5c34)CC2)c1 (stereo not drawn) [compound 125] | > 1 | – |
| N#CC1CCN(C2CCC(c3nnn4cnc5[nH]ccc5c34)CC2)CC1 (stereo not drawn) [compound 127] | > 1 | – |
| N#CCNC[C@H]1CC[C@H](n2c(=O)[nH]c(=O)c3cnc4[nH]ccc4c32)CC1 [compound 127] | – | IC50 ([2]; IC50 (μM) JAK3, ATP 100 μM): > 1 µM |
| CN(c1ccc(F)cc1)C1CCC(c2nnn3cnc4[nH]ccc4c23)CC1 (stereo not drawn) [compound 130] | > 1 | – |
| Fc1ccc(NC2CCC(c3nnn4cnc5[nH]ccc5c34)CC2)cc1 (stereo not drawn) [compound 131] | 0.56 | – |
| Cc1cc(C#N)ccc1NC1CCC(c2nnn3cnc4[nH]ccc4c23)CC1 (stereo not drawn) [compound 132] | > 1 | – |
| OC[C@H]1CC[C@H](c2nnn3cnc4[nH]ccc4c23)CC1 [compound 141] | 0.24 | – |
| FC(F)(F)c1ccc(CN2CCC(c3nnn4cnc5[nH]ccc5c34)CC2)o1 [compound 143] | 0.18 | – |
| N#Cc1ccc(CN2CCC(c3nnn4cnc5[nH]ccc5c34)CC2)s1 [compound 144] | 0.054 | – |
| Fc1ccc(CN2CCC(c3nnn4cnc5[nH]ccc5c34)CC2)cn1 [compound 145] | 0.026 | – |
| Ic1ccc(CN2CCC(c3nnn4cnc5[nH]ccc5c34)CC2)o1 [compound 147] | 0.18 | – |
| c1csc(CN2CCC(c3nnn4cnc5[nH]ccc5c34)CC2)c1 [compound 148] | 0.2 | – |
| Brc1ccc(CN2CCC(c3nnn4cnc5[nH]ccc5c34)CC2)o1 [compound 149] | 0.06 | – |
| O[C@@H](CNC[C@H]1CC[C@H](c2nnn3cnc4[nH]ccc4c23)CC1)c1ccccc1 [compound 276, (R)-2-({[trans-4-(7H-pyrrolo[3,2-e][1,2,3]triazolo[1,5-c]pyrimidin-1-yl)cyclohexyl]methyl}amino)-1-phenylethanol] | – | IC50 [3, 6]: 0.063 µM |
| O[C@H](CNC[C@H]1CC[C@H](c2nnn3cnc4[nH]ccc4c23)CC1)c1ccccc1 [compound 277, (S)-2-({[trans-4-(7H-pyrrolo[3,2-e][1,2,3]triazolo[1,5-c]pyrimidin-1-yl)cyclohexyl]methyl}amino)-1-phenylethanol] | – | IC50 [3, 6]: 0.27 µM |

Where two headings read alike, the source gives them in different places.
